{
  "source": "paper PMC9181795",
  "about": "“Ibuprofen Favors Binding of Amyloid-β Peptide to Its Depot, Serum Albumin” (International Journal of Molecular Sciences, 2022)",
  "origin": "cited, not measured here",
  "key": {"AD": {"test_system": "AD", "set-up": "method as in PMID 32715623, PMID 30859122, PMID 25023458", "conditions": "plasma exchange, replacement of endogenous albumin with therapeutic HSA; ref [16],[17],[18]; cited from earlier work"}, "murine brain": {"test_system": "murine brain", "conditions": "intracerebroventricular; ref [19]; cited from earlier work"}, "Aβ": {"test_system": "Aβ", "conditions": "cited from earlier work", "text": "Multimerization of monomeric Aβ leads to the formation of soluble toxic oligomers, protofibrils, and insoluble mature fibrils, which assemble into amyloid plaques. Therefore, the Aβ therapeutics in clinical trials pursue avoidance of Aβ aggregation, aside from reduction of Aβ production and enhancement of Aβ clearance."}},
  "data": [
    {"substance": "HSA: defatted human serum albumin extracted from blood under non-denaturing conditions (Merck #126654)", "values": [
      {"measurement": "cognitive and functional decline in AD", "setting": "AD", "value": "slowdown of cognitive and functional decline in AD"},
      {"measurement": "result of direct delivery of exogenous HSA into brain", "setting": "murine brain", "value": "positive results"},
      {"measurement": "contribution to prevention of Aβ polymerization via Aβ binding", "setting": "Aβ; plasma and CSF proteins, ref [7]", "value": "over 60%"},
      {"measurement": "share of total Aβ in plasma bound by HSA", "setting": "Aβ; plasma, ref [9]", "value": "about 89%"}
    ]}
  ]
}
